Values of other authors, collected in US10222368B2 (priority 2012, dated 2019).

The chains behind the UniProt entries cited, without tags or fusion partners. Where a name states a change or a piece, a line headed by the entry shows the natural chain unless it says otherwise.
UniProt P35372, whole entry, species assumed: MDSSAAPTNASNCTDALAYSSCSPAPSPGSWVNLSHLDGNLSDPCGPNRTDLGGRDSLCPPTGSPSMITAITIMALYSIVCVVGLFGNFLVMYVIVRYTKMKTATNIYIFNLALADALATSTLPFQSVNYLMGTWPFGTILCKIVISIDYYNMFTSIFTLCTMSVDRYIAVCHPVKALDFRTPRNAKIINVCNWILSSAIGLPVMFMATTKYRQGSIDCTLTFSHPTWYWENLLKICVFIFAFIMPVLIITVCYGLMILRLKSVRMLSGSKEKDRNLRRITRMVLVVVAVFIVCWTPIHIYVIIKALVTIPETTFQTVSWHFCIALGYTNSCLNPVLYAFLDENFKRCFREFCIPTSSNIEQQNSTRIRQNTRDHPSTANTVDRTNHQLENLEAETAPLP
UniProt P41145: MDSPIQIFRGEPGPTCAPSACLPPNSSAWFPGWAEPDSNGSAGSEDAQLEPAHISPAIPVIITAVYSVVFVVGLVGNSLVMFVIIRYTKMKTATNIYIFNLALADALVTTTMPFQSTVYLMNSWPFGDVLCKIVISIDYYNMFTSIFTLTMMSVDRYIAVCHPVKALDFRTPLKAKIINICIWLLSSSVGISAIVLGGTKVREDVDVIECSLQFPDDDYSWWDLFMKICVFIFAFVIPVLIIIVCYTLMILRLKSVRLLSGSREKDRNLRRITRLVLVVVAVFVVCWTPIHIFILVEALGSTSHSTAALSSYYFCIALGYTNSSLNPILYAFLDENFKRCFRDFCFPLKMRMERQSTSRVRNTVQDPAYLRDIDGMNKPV
UniProt P41143, whole entry: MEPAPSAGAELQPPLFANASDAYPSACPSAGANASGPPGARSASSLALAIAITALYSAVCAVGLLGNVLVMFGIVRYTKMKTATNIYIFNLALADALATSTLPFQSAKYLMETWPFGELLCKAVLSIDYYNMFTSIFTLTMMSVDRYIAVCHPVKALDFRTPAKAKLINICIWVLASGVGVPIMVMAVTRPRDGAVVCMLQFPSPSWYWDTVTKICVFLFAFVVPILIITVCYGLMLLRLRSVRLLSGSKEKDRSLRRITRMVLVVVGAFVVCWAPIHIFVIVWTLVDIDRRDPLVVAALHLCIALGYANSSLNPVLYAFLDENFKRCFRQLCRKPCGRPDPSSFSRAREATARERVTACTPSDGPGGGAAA

Tests used:
Conditions in all cases: cited from earlier work
MU opioid receptor = MU opioid receptor (Homo sapiens, UniProt P35372); parameters: key: “−” = antagonist; “+” = agonist; P = partial agonist; “NR” = not reported in the published table
KAPPA opioid receptor = KAPPA opioid receptor (Homo sapiens, UniProt P41145); parameters: key: “−” = antagonist; “+” = agonist; P = partial agonist; “NR” = not reported in the published table
DELTA opioid receptor = DELTA opioid receptor (Homo sapiens, UniProt P41143)

Naltrindole
Opioid receptor activity and relative potency, MU (MU opioid receptor): −
Opioid receptor activity and relative potency, KAPPA (KAPPA opioid receptor): −
Opioid receptor activity and relative potency, DELTA (DELTA opioid receptor): − − −
